The text below walks through data of US20230340011A1 (Asteroid Therapeutics, priority 2022, published 2023).

Chains of the proteins cited; added tags and fusions are not shown.
UniProt P55055, whole entry: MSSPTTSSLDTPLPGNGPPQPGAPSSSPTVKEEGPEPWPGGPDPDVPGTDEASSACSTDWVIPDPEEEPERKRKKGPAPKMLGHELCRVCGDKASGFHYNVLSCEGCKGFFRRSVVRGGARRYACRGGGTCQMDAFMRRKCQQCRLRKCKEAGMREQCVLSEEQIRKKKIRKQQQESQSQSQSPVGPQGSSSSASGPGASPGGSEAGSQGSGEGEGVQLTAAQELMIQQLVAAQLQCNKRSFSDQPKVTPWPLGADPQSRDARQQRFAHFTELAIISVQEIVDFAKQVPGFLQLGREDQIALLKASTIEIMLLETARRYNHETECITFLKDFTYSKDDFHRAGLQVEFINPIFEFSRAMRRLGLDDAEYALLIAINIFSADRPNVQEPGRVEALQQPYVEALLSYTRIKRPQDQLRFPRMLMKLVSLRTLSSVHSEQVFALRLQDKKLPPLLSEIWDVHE

The target of the test is LXRβ (Homo sapiens (Human), UniProt P55055). In words: In vitro assay LXRβ: PathHunter NHR CHO cells, LXRβ / Steroid Receptor Co-activator Peptide enzyme fragment complementation. It is filed as cell-based. The settings on record: read-out: LXRβ PPI, full-length human LXRβ and SRCP, chemiluminescent signal.

Take `C[C@H](CCc1ccncn1)[C@H]1CC[C@H]2[C@@H]3CC=C4C[C@@H](O)CC[C@]4(C)[C@H]3CC[C@]12C`: the EC50 lay within 1 to 10 µM.
